Results on five molecules are retold here after ChEMBL document CHEMBL1133436 (Bioorg Med Chem Lett, 2000).

This experiment is filed under the species Homo sapiens. Briefly: Selectivity for alpha-2a to that of alpha2b determined by their binding affinity ratios.

As to `O=C(NCCCCCCNC(=O)[C@@H]1[C@H]2C[C@H]3c4[nH]c5ccccc5c4CCN3C[C@@H]2CC[C@@H]1O)[C@@H]1[C@H]2C[C@H]3c4[nH]c5ccccc5c4CCN3C[C@@H]2CC[C@@H]1O`, the Selectivity was found to be 123.

For the molecule `O=C(NCCCCCNC(=O)[C@@H]1[C@H]2C[C@H]3c4[nH]c5ccccc5c4CCN3C[C@@H]2CC[C@@H]1O)[C@@H]1[C@H]2C[C@H]3c4[nH]c5ccccc5c4CCN3C[C@@H]2CC[C@@H]1O`, the Selectivity came out at 77.6.

For `O=C(NCCNC(=O)[C@@H]1[C@H]2C[C@H]3c4[nH]c5ccccc5c4CCN3C[C@@H]2CC[C@@H]1O)[C@@H]1[C@H]2C[C@H]3c4[nH]c5ccccc5c4CCN3C[C@@H]2CC[C@@H]1O`, the Selectivity is 57.2.

With `O=C(NCCCCCCCNC(=O)[C@@H]1[C@H]2C[C@H]3c4[nH]c5ccccc5c4CCN3C[C@@H]2CC[C@@H]1O)[C@@H]1[C@H]2C[C@H]3c4[nH]c5ccccc5c4CCN3C[C@@H]2CC[C@@H]1O`, the Selectivity came to 31.7.

On to `O=C(NCCCCNC(=O)[C@@H]1[C@H]2C[C@H]3c4[nH]c5ccccc5c4CCN3C[C@@H]2CC[C@@H]1O)[C@@H]1[C@H]2C[C@H]3c4[nH]c5ccccc5c4CCN3C[C@@H]2CC[C@@H]1O`, for which the Selectivity came to 12.3.
